# Experimental data: paper PMC4724290 (Synapse (New York, N.Y.), 2015)
# Amino acid sequences for entries named in this document (tags omitted).
# UniProt O55242, whole entry: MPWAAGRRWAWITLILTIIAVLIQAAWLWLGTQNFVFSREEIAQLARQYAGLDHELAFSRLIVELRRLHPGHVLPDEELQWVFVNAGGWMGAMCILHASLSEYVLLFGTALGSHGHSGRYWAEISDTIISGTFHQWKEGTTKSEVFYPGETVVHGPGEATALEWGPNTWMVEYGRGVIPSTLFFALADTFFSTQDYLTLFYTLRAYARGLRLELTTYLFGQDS
# UniProt Q61327, whole entry: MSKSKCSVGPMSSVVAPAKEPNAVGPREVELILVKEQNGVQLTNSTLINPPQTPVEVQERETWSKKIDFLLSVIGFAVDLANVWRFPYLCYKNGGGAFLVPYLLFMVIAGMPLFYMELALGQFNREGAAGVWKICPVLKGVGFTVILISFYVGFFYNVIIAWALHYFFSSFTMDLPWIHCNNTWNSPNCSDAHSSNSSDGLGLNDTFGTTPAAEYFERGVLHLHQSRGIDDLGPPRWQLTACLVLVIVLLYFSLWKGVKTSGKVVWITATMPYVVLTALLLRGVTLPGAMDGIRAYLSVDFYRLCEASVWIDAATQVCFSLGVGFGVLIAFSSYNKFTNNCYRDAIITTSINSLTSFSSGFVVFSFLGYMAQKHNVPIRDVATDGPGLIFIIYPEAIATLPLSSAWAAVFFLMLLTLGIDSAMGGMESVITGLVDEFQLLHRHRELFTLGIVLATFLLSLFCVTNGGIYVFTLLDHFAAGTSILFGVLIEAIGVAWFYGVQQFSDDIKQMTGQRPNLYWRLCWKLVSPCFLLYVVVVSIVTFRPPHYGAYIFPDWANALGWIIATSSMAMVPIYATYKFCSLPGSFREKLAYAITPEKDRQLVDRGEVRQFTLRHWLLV
# Like-named read-outs stand apart in the source and are kept apart here.
# Columns and labels:
# [1] = system: rat striatal DAT
# [2] = Brain level of; assay type: in vivo, CD-1 mice; conditions: indicated by 3.45 ng/mg brain level
# [3] = molecular target: T1, σ1 receptors (Mus musculus, UniProt O55242); experiment: In vitro σ1 receptor binding, [^3H]; design: species or system CD-1 mouse
# [4] = molecular target: T1, σ1 receptors; experiment: In vitro σ1 receptor binding, [^125I]E-IA-DM-PE-PIPZE, brain membranes; design: species or system CD-1 mouse; conditions: 1.0 nM [^125I]E-IA-DM-PE-PIPZE, 37 °C, 60 min
# [5] = system: DAT; conditions: ref Garcés-Ramírez et al., 2011; cited from earlier work
# [6] = molecular target: T2, σ2 receptors (Mus musculus, UniProt Q8VD00); experiment: In vitro σ2 receptor binding, [^3H]DTG/; design: species or system CD-1 mouse; conditions: 3.0 nM [^3H]DTG/500 nM (+)pentazocine, 25 °C, 60 min
# T2 sequence (Q8VD00 1-176): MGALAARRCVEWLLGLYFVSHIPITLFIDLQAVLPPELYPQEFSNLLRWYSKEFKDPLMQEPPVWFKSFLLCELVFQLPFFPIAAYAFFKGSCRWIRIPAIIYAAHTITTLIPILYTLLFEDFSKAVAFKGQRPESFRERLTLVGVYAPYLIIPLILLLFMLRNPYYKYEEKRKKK
# [7] = molecular target: T1, σ1 receptors; conditions: 100 μmol/kg i.p. 1 min prior to radioligand, 30 min
# [8] = molecular target: T1, σ1 receptors; assay type: in vivo, CD-1 mice; conditions: 60 min; for Specific Binding [^125I]E-IA-DM-PE-PIPZE, (−)-Cocaine: (−)-cocaine 100 μmol/kg i.p.
# [9] = molecular target: striatal dopamine transporters (DAT) (Mus musculus, UniProt Q61327); experiment: In vivo DAT occupancy: inhibition of [^125I]RTI-121 specific binding in striatum; design: species or system CD-1 mice
# [10] = molecular target: T1, σ1 receptors; assay type: in vivo, CD-1 mice
# [11] = (−)-cocaine hydrochloride 20 mg/kg (59 μmol/kg)
substance,measurement,setting,value
(−)-Cocaine hydrochloride,Selectivity for binding to the DAT over σ1 receptors,[1],roughly 15 fold
same,Concentration in whole mouse brain,[2],10 µM
same,Sigma1 nH,"[3]; 3.0 nM [^3H](+)pentazocine, 37 °C, 180 min",1.00 ± 0.11
same,Selectivity Ki Ratio σ2/σ1,[3]; CD-1 mouse whole brain membranes,36
same,Selectivity for binding to σ1 over σ2 receptors,[3]; from Table II,35 fold
same,IC50,"[3]; read-out: Sigma1 IC50, 3.0 nM [^3H](+)pentazocine, 37 °C, 180 min",2070 ± 341 nM
same,Sigma1 nH,[4],0.91 ± 0.11
same,IC50,[4]; read-out: Sigma1 IC50,1360 ± 53 nM
same,Ki,[4]; read-out: Sigma1 Ki,1080 ± 42 nM
same,Affinity for the DAT relative to σ1 receptors,[5],70 fold
same,Sigma2 nH,[6],1.03 ± 0.05
same,IC50,[6]; read-out: Sigma2 IC50,53400 ± 4150 nM
same,"Inhibition of radioligand uptake, average over brain regions",[7],37%
same,"Inhibition of radioligand uptake, hippocampus",[7],27%
same,"Inhibition of radioligand uptake, olfactory tubercles",[7],45%
same,Average reduction of specific radioligand binding across 20 brain regions,[8]; 100 μmol/kg i.p. pretreatment,53.8 ± 3.2%
same,"Specific Binding [^125I]E-IA-DM-PE-PIPZE, (−)-Cocaine",[8]; Caudate-putamen,0.87 ± 0.09 fmol/mg tissue
same,"Specific Binding [^125I]E-IA-DM-PE-PIPZE, (−)-Cocaine","[8]; Cortex, Cingulate",1.36 ± 0.14 fmol/mg tissue
same,"Specific Binding [^125I]E-IA-DM-PE-PIPZE, (−)-Cocaine","[8]; Cortex, Entorhinal",1.10 ± 0.11 fmol/mg tissue
same,"Specific Binding [^125I]E-IA-DM-PE-PIPZE, (−)-Cocaine","[8]; Cortex, Frontal",1.58 ± 0.14 fmol/mg tissue
same,"Specific Binding [^125I]E-IA-DM-PE-PIPZE, (−)-Cocaine","[8]; Cortex, Parietal",1.41 ± 0.13 fmol/mg tissue
same,"Specific Binding [^125I]E-IA-DM-PE-PIPZE, (−)-Cocaine","[8]; Cortex, Temporal",1.43 ± 0.14 fmol/mg tissue
same,"Specific Binding [^125I]E-IA-DM-PE-PIPZE, (−)-Cocaine","[8]; Diencephalon, Thalamic nuclei",1.60 ± 0.25 fmol/mg tissue
same,"Specific Binding [^125I]E-IA-DM-PE-PIPZE, (−)-Cocaine","[8]; Diencephalon, Thalamus",1.52 ± 0.18 fmol/mg tissue
same,"Specific Binding [^125I]E-IA-DM-PE-PIPZE, (−)-Cocaine","[8]; Hippocampus, CA1 pyramidal",1.04 ± 0.09 fmol/mg tissue
same,"Specific Binding [^125I]E-IA-DM-PE-PIPZE, (−)-Cocaine","[8]; Hippocampus, CA2 pyramidal",1.41 ± 0.11 fmol/mg tissue
same,"Specific Binding [^125I]E-IA-DM-PE-PIPZE, (−)-Cocaine","[8]; Hippocampus, CA3 pyramidal",1.50 ± 0.12 fmol/mg tissue
same,"Specific Binding [^125I]E-IA-DM-PE-PIPZE, (−)-Cocaine","[8]; Hippocampus, Dentate Gyrus",1.39 ± 0.09 fmol/mg tissue
same,"Specific Binding [^125I]E-IA-DM-PE-PIPZE, (−)-Cocaine","[8]; Hippocampus, Nonpyramidal",0.63 ± 0.09 fmol/mg tissue
same,"Specific Binding [^125I]E-IA-DM-PE-PIPZE, (−)-Cocaine","[8]; Mesencephalon, Inferior Colliculi",1.69 ± 0.16 fmol/mg tissue
same,"Specific Binding [^125I]E-IA-DM-PE-PIPZE, (−)-Cocaine","[8]; Mesencephalon, Periaqueductal Gray",1.78 ± 0.16 fmol/mg tissue
same,"Specific Binding [^125I]E-IA-DM-PE-PIPZE, (−)-Cocaine","[8]; Mesencephalon, Superior Colliculi",1.59 ± 0.11 fmol/mg tissue
same,"Specific Binding [^125I]E-IA-DM-PE-PIPZE, (−)-Cocaine","[8]; Metencephalon, Cerebellum (whole)",1.32 ± 0.14 fmol/mg tissue
same,"Specific Binding [^125I]E-IA-DM-PE-PIPZE, (−)-Cocaine","[8]; Metencephalon, Granular layer",1.90 ± 0.15 fmol/mg tissue
same,"Specific Binding [^125I]E-IA-DM-PE-PIPZE, (−)-Cocaine","[8]; Metencephalon, Molecular layer",1.08 ± 0.08 fmol/mg tissue
same,"Specific Binding [^125I]E-IA-DM-PE-PIPZE, (−)-Cocaine","[8]; White Matter, Corpus callosum",1.29 ± 0.17 fmol/mg tissue
same,Maximal level of inhibition of specific [^125I]RTI-121 binding,[9]; 10 to 100 μmol/kg i.p.,67%
same,Occupancy of the DAT,[9]; [11],62%
same,ED50 for inhibition of specific [^125I]RTI-121 binding (striatal DAT occupancy),"[9]; drug i.p. 1 min prior to radioligand, 30 min, bottom plateau constrained to zero",26 µmol/kg
same,Fractional occupancy of cerebral σ1 receptors by mass-action calculation,"[10]; 10 μM brain concentration, 1075 nM apparent affinity",~90%
same,Reduction of specific binding in whole brain by anatomical dissection,"[10]; 100 μmol/kg i.p., 15 min prior, 60 min (Fig. 1A)",57%
same,ED50 for σ1 receptor occupancy relative to the DAT,[10]; 68 vs 26 μmol/kg,2.6 fold
same,Occupancy of σ1 receptors,[10]; [11],46%
